Source: US20260055108A1, “TRIAZINE COMPOUNDS AND USES THEREOF” (HUTCHMED LIMITED, priority 2022, published 2026)

By UniProt entry, the sequences of proteins in these tests, tags left out. Residues count along the entry.
UniProt O00255, 2-610: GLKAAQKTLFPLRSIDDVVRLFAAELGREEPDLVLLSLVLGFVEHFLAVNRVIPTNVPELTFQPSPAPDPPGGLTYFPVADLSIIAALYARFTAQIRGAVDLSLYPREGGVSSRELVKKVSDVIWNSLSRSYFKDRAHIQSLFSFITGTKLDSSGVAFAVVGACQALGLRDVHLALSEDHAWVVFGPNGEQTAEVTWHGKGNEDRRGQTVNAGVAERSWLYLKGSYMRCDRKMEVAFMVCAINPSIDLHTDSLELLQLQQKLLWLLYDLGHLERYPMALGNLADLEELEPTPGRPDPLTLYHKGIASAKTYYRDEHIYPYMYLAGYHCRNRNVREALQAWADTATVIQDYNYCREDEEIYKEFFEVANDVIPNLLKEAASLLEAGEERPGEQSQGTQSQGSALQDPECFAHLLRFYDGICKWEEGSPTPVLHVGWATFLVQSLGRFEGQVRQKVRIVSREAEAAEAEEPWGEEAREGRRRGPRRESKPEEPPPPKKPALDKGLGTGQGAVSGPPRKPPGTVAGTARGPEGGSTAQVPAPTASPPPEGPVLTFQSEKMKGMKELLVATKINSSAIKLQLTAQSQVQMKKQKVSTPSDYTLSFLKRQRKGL

Molecular target: Recombinant human Menin protein (2-610) / MLL polypeptide binding (Homo sapiens (Human), UniProt O00255)
Experiment: Menin and MLL protein binding at a molecular level (fluorescence polarization method)
Conditions: inhibition of Menin / MLL polypeptide binding
Source text: Example 3: Determination of the Activity of the Compounds of the Present Invention on Menin and MLL Protein Binding at a Molecular Level (Fluorescence Polarization Method)
1. Reagents, Materials and Instruments:
• Recombinant human Menin protein (2-610): ChemPartner, CP2021020801; • MLL polypeptide (6-FAM-Ahx-SG-40): GL Biochem, 865700; • Trizma® hydrochloride buffer solution (Tris): Sigma, T2194-1 L; • NaCl: Invitrogen, AM9760G; • TCEP: Sigma, 646547; • DMSO: Sigma, D4540; • 384-well plate: Corning, 4514; • Envision: PerkinElmer.
2. Preparation of Reaction Solutions […]
The vertical polarization S value and the horizontal polarization P value (excitation wavelength was 480 nm, and emission wavelength was 535 nm) were measured with Envision. […]
• calculated by using software XL-Fit™ (version 5.3) supplied by ID Business Solutions (Guildford, UK), which is an additional software to Microsoft Excel.

CCN(C(=O)c1cc(F)ccc1Oc1nncnc1N1CC2(CCN(CC3CCN(C(=O)C4(C(=O)N(C)C)CC4)CC3)CC2)C1)C(C)C [Compound 19, 2-((5-(7-((1-(1-(dimethylcarbamoyl)cyclopropane-1-carbonyl)piperidin-4-yl)methyl)-2,7-diazaspiro[3.5]nonan-2-yl)-1,2,4-triazin-6-yl)oxy)-N-ethyl-5-fluoro-N-isopropylbenzamide] gave an IC50 of 369 nM.
